{
  "sequences": {"note": "Chains of the proteins cited; added tags and fusions are not shown. Residues count along the entry.", "UniProt P10826, 183-417 limits assumed": "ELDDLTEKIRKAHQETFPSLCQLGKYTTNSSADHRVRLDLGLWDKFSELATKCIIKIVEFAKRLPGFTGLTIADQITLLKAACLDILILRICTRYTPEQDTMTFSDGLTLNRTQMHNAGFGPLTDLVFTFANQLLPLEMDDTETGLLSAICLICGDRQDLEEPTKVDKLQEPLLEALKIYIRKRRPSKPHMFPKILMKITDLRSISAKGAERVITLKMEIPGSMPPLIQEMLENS"},
  "source": "paper PMC5933457",
  "about": "“Probing biological activity through structural modelling of ligand-receptor interactions of 2,4-disubstituted thiazole retinoids” (Bioorganic & Medicinal Chemistry, 2018)",
  "biological_target": "T1, RARβ ligand-binding domain (GST-RAR-β-LBD) (Homo sapiens, UniProt P10826)",
  "T1 construct": "purchased Invitrogen",
  "test": "LanthaScreen TR-FRET RARβ co-activator (receptor binding) assay",
  "type": "biochemical",
  "conditions": "in words, Fig. 6B",
  "method": "These predictions were tested through a receptor-binding assay for each RAR isotype (Fig. 6), where the assay signal is dependent on two parameters: the binding affinity of ligand to the RAR LBD, and the affinity of the coactivator for the ligand-LBD complex. […]\nThe binding interaction of each retinoid with RARα, β and γ were determined in vitro by time-resolved fluorescence resonance energy transfer (TR-FRET) using the LanthaScreen TR-FRET RARα, RARβ, and RARγ co-activator assays according to the manufacturer’s (Invitrogen™) instructions.[23] […] Each ligand assay was performed in duplicate and measured using a PHERAstar FS Microplate Reader (BMG Labtech, Ortenberg, Germany) with instrument settings as described in the manufacturer’s instructions for LanthaScreen assays. The TR-FRET signal was expressed as the ratio of the signals at 520 nm and 490 nm. […]\nThe readout of the Lanthascreen TR-FRET binding assay is based on a Forster resonance energy transfer (FRET) signal generated from the interaction between a terbium-labelled anti-glutathione-S-transferase (GST) antibody and a fluorescein-labelled coactivator peptide. […]",
  "data": [
    {"smiles": "CC1=C(/C=C/C(C)=C/C=C/C(C)=C/C(=O)O)C(C)(C)CCC1", "note": "[ATRA, all-trans-retinoic acid, reference compound]", "values": [
      {"measurement": "binding-curve upper asymptote (coactivator recruitment), RARβ", "result": "high asymptotes"}
    ]}
  ]
}
